Tested on: N[C@@H](Cc1ccc(O)cc1)C(=O)O
Experiment: purified protein
Settings: PBS pH 7.0, 1 uM PLP, oxidative (AAS) reaction to 4HPAA, also decarboxylated to tyramine

Substance: PsTyDC6 (Papaver somniferum)
- Km: 580 µM
